Measured values as given in patent US7964567B2, “Monomethylvaline compounds capable of conjugation to ligands” (Seattle Genetics, Inc., priority 2003, dated 2011).
Where “and” joins values, the source holds several entries; their conditions need not be identical. Equal values may be shown once.

Experiments:
SK-BR-3 cells = test: In vitro cell proliferation assay (CellTiter-Glo), SK-BR-3 cells; type: cell-based, human; conditions: ADC incubated 3-5 days
[1] = Cynomolgus monkey toxicity/safety; type: in vivo, Macaca fascicularis (cynomolgus monkey)
Acute toxicity in rats = type: in vivo, Sprague-Dawley rats
BT474 cells = test: In vitro cell proliferation assay (CellTiter-Glo), BT-474 cells; type: cell-based; conditions: ADC incubated 3-5 days
MCF-7 cells = test: In vitro cell proliferation assay (CellTiter-Glo), MCF-7 cells; type: cell-based; conditions: MCF-7 cells do not overexpress HER2 (FIG. 9)
MDA-MB-468 cells = test: In vitro cell proliferation assay (CellTiter-Glo), MDA-MB-468 cells; type: cell-based; conditions: MDA-MB-468 cells do not overexpress HER2 (FIG. 10)
[2] = Plasma clearance pharmacokinetics in rats; type: in vivo, Sprague-Dawley rats; conditions: rat, 2 mg/kg IV
[3] = Study Day 5, 2105 μg MMAF/m^2 (groups 3, 5, 7, 8)
[4] = female rats, single IV dose, 2105 μg MMAF/m^2 (groups 3, 5, 7, 8)

**Q.** Which “IC50 (μg ADC/ml)” value (SK-BR-3 cells) does the source give for “H-MC-(D)val-(D)cit-PAB-MMAE: trastuzumab-MMAE conjugate with (D)val-(D)cit linker” here?
**A.** 0.02 μg ADC/ml

**Q.** Which “IC50 (μg ADC/ml)” value (SK-BR-3 cells; 3.2 MMAE/Ab) does the source give for “H-MC-(D)val-(L)cit-PAB-MMAE: trastuzumab-MMAE conjugate with (D)val-(L)cit linker” here?
**A.** 0.003 μg ADC/ml

**Q.** And the “IC50 (μg ADC/ml)” value (SK-BR-3 cells; 8.4 MMAE/Ab)?
**A.** 0.0015 μg ADC/ml

**Q.** Which “IC50 (μg ADC/ml)” value (SK-BR-3 cells) does the source give for “H-MC-(L)val-(L)cit-PAB-MMAE, 8.7 MMAE/Ab: trastuzumab-MMAE conjugate with (L)val-(L)cit linker” here?
**A.** 0.0003 μg ADC/ml

**Q.** Which “IC50 (μg ADC/ml)” value (SK-BR-3 cells; 3.7 MMAF/Ab) does the source give for “H-MC-vc-PAB-MMAF: trastuzumab conjugated via a cysteine to MC-val-cit-PAB-MMAF 9; preparations of different loading” here?
**A.** 0.010 μg ADC/ml

**Q.** And the “IC50 (μg ADC/ml)” value (SK-BR-3 cells; 3.8 MMAF/Ab)?
**A.** 0.0035-0.01 μg ADC/ml and 0.007 μg ADC/ml

**Q.** What about the “IC50 (μg ADC/ml)” value (SK-BR-3 cells; 4.4 MMAF/Ab) of the same substance?
**A.** 0.006-0.007 μg ADC/ml

**Q.** What about the “IC50 (μg ADC/ml)” value (SK-BR-3 cells; 4.8 MMAF/Ab) of the same substance?
**A.** 0.006 μg ADC/ml

**Q.** What about the liver enzymes ([1]; at 550 (transient) and 880 mg/m^2 dose level) of the same substance?
**A.** elevation of liver enzymes

**Q.** What about the granulocytopenia ([1]; cynomolgus monkey) of the same substance?
**A.** no evidence of granulocytopenia

**Q.** And the “change in body weights versus group 1 (Vehicle) animals” value (“change” for short) (Acute toxicity in rats; [3])?
**A.** statistically different

**Q.** What about the “body weight during the study” value (Acute toxicity in rats; [4]) of the same substance?
**A.** lost weight

**Q.** And the “IC50 (μg ADC/ml)” value (BT474 cells; 3.7 MMAF/Ab)?
**A.** 0.02 μg ADC/ml

**Q.** And the “IC50 (μg ADC/ml)” value (BT474 cells; 3.8 MMAF/Ab)?
**A.** 0.015 μg ADC/ml and 0.02-0.05 μg ADC/ml

**Q.** What about the “IC50 (μg ADC/ml)” value (BT474 cells; 4.4 MMAF/Ab) of the same substance?
**A.** 0.01 μg ADC/ml

**Q.** What about the “inhibition of the proliferation of MCF-7 cells” value (“inhibition … of MCF-7 cells” for short) (MCF-7 cells) of the same substance?
**A.** did not inhibit

**Q.** And the “inhibition of the proliferation of MDA-MB-468 cells” value (from here on “inhibition … of MDA-MB-468 cells”) (MDA-MB-468 cells)?
**A.** did not inhibit

**Q.** Which “IC50 (μg ADC/ml)” value (SK-BR-3 cells; 4.1 MMAE/Ab) does the source give for “H-MC-vc-PAB-MMAE: trastuzumab conjugated via a cysteine to MC-val-cit-PAB-MMAE; preparations of different loading” here?
**A.** 0.010 μg ADC/ml

**Q.** What about the “IC50 (μg ADC/ml)” value (SK-BR-3 cells; 7.5 MMAE/Ab) of the same substance?
**A.** 0.0025 μg ADC/ml

**Q.** And the peripheral blood granulocytes ([1]; after a single dose of 1100 mg/m^2, complete recovery 14 days post-dose)?
**A.** depletion

**Q.** And the liver toxicity ([1]; cynomolgus monkey, any of the dose levels tested)?
**A.** no evidence of liver toxicity

**Q.** And the “IC50 (μg ADC/ml)” value (BT474 cells; 3.3 MMAE/Ab)?
**A.** 0.02 μg ADC/ml

**Q.** What about the “IC50 (μg ADC/ml)” value (BT474 cells; 4.1 MMAE/Ab) of the same substance?
**A.** 0.015 μg ADC/ml

**Q.** And the “IC50 (μg ADC/ml)” value (BT474 cells; 7.5 MMAE/Ab)?
**A.** 0.0025 μg ADC/ml

**Q.** What about the “inhibition … of MCF-7 cells” value (MCF-7 cells) of the same substance?
**A.** did not inhibit

**Q.** And the “inhibition … of MDA-MB-468 cells” value (MDA-MB-468 cells)?
**A.** did not inhibit

**Q.** With “H-vc-MMAE, linked via a lysine [lys]: trastuzumab val-cit MMAE conjugate linked via a lysine” as the substance, how does the “IC50 (μg ADC/ml)” value (SK-BR-3 cells) read?
**A.** 0.002 μg ADC/ml

**Q.** With “H-MC-(N-Me)vc-PAB-MMAF, 3.9 MMAF/Ab: trastuzumab-MMAF conjugate with N-methyl-valine citrulline linker, modified to prevent cleavage by cathepsin B” as the substance, how does the “IC50 (μg ADC/ml)” value (SK-BR-3 cells) read?
**A.** 0.0035 μg ADC/ml

**Q.** And the “change” value (Acute toxicity in rats; Study Day 5, 840 μg MMAF/m^2 (groups 2, 4, 6))?
**A.** statistically different

**Q.** And the “change” value (Acute toxicity in rats; [3])?
**A.** statistically different

**Q.** What about the “body weight during the study” value (Acute toxicity in rats; female rats, single IV dose, 840 μg MMAF/m^2 (groups 2, 4, 6)) of the same substance?
**A.** gained weight

**Q.** And the “body weight during the study” value (Acute toxicity in rats; [4])?
**A.** lost weight

**Q.** And the toxicity profile (Acute toxicity in rats; female rats, single IV dose, 840 and 2105 μg MMAF/m^2, necropsy day 5)?
**A.** most evident

**Q.** What about the “IC50 (μg ADC/ml)” value (BT474 cells) of the same substance?
**A.** 0.010 μg ADC/ml

**Q.** What about the “inhibition … of MCF-7 cells” value (MCF-7 cells) of the same substance?
**A.** did not inhibit

**Q.** And the “inhibition … of MDA-MB-468 cells” value (MDA-MB-468 cells)?
**A.** did not inhibit

**Q.** Which results are given for “HER F(ab′)2-MC-vc-MMAE: MC-vc-MMAE conjugate of Herceptin F(ab′)2”?
**A.** % Conj. ([2]; AUCinf of ADC ÷ AUCinf total Ab): 95%; AUCinf ([2]; analyte Conj. (ADC)): 8.8 µg·days/mL; Cmax ([2]; analyte Conj. (ADC)): 36900 ng/mL; T½ Term. ([2]; analyte Conj. (ADC)): 6.96 h; AUCinf ([2]; analyte Total Ab): 9.3 µg·days/mL; CL ([2]; analyte Total Ab): 0.151 mL/min/kg; Cmax ([2]; analyte Total Ab): 34400 ng/mL; T½ Term. ([2]; analyte Total Ab): 8.4 h

**Q.** With “H-MC-MMAE: trastuzumab conjugated to maleimidocaproyl-monomethyl auristatin E” as the substance, how does the “IC50 (μg ADC/ml)” value (SK-BR-3 cells; 4.6 MMAE/Ab) read?
**A.** 0.05 μg ADC/ml

**Q.** And the “IC50 (μg ADC/ml)” value (SK-BR-3 cells; 8.8 MMAE/Ab)?
**A.** 0.018 μg ADC/ml

**Q.** What about the “IC50 (μg ADC/ml)” value (BT474 cells; 4.6 MMAE/Ab) of the same substance?
**A.** 0.07 μg ADC/ml

**Q.** What about the “IC50 (μg ADC/ml)” value (BT474 cells; 8.8 MMAE/Ab) of the same substance?
**A.** 0.04 μg ADC/ml

**Q.** Which “IC50 (μg ADC/ml)” value (SK-BR-3 cells) does the source give for “Trastuzumab: recombinant DNA-derived humanized monoclonal antibody that binds HER2 [reference compound]” here?
**A.** 0.083 μg ADC/ml

**Q.** Which “IC50 (μg ADC/ml)” value (SK-BR-3 cells) does the source give for “H-phe-lys-MMAE, linked via a lysine [lys]: trastuzumab phe-lys MMAE conjugate linked via a lysine” here?
**A.** 0.0015 μg ADC/ml
